Reference: patent US20250084101A1, “COMPOUND FOR INHIBITING AND DEGRADING IRAK4, AND PHARMACEUTICAL COMPOSITION AND PHARMACEUTICAL APPLICATION THEREOF” (XIZANG HAISCO PHARMACEUTICAL CO., LTD., priority 2022, published 2025)

Sequences of proteins named here, by UniProt entry; tags and fusion partners are left off.
UniProt Q9NWZ3, whole entry: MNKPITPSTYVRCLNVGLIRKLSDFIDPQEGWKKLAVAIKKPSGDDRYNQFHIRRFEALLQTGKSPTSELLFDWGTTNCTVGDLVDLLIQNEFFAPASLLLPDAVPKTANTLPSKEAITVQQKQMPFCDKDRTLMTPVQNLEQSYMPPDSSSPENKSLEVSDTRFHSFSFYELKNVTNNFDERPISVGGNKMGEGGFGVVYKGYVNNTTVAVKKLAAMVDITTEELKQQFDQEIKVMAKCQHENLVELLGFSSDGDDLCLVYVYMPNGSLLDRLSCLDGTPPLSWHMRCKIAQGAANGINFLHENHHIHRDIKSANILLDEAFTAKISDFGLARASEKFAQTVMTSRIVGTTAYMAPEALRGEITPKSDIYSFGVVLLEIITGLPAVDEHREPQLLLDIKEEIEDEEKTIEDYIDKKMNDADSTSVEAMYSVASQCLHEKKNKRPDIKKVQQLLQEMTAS
UniProt Q12809, whole entry: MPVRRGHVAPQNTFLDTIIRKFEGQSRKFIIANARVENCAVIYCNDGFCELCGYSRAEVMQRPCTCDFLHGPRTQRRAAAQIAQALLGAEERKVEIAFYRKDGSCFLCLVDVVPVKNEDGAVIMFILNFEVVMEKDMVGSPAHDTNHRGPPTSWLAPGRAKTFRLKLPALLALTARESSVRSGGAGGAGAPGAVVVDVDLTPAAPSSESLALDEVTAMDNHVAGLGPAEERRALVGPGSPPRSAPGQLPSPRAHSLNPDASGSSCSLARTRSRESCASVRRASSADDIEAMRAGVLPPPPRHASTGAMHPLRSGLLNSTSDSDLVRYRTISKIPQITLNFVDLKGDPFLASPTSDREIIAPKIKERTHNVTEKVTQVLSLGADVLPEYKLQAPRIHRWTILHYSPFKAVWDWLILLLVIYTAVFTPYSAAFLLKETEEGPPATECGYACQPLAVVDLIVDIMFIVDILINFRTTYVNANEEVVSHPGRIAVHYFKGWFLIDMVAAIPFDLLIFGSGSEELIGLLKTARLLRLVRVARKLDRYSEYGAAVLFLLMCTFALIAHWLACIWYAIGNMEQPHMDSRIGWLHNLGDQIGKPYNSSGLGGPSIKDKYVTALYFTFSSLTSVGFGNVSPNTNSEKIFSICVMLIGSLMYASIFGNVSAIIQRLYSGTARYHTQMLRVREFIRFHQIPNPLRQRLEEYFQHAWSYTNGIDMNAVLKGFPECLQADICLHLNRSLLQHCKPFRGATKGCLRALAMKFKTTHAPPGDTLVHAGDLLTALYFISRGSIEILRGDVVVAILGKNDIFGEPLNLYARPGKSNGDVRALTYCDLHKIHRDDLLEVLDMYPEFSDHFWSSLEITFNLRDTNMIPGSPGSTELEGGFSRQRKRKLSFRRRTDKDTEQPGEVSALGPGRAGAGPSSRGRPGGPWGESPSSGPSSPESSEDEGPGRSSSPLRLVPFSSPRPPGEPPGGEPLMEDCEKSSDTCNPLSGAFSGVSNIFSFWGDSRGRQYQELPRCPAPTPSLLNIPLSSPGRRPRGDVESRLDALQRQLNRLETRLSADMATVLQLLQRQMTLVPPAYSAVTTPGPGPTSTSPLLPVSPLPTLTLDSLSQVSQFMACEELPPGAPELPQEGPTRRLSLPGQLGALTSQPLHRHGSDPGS

Key:
IRAK4 protein = IRAK4 protein (Homo sapiens, UniProt Q9NWZ3); experiment: IRAK4 degradation activity in hPBMC cells (24 hours); details: read-out: DC50 for IRAK4 protein degradation
Procedure: hPBMC cells are human peripheral blood mononuclear cells. Peripheral venous blood was taken from healthy volunteers, and hPBMCs were isolated using Ficoll density gradient centrifugation (Ficoll-Paque™ PLUS 1.077, GE, Cat. 17-1140-02). Culture conditions: RPMI-1640+10% FBS+1% penicillin-streptomycin solution. The cells were cultured in an incubator at 37° C. and 5% CO2. The cells were plated in a 24-well plate at 1×10^6 cells/well. After plating, compounds at different concentrations were added, and the cells were cultured in an incubator at 37° C. and 5% CO2 for 24 hours. After the culture was completed, the cells were collected, and RIPA lysis buffer (beyotime, Cat. P0013B) was added. The cells were lysed on ice for 20 minutes, and then centrifuged at 12000 rpm at 4° C. for 10 minutes. The protein sample of the supernatant was collected, the protein was quantified using a BCA kit (Beyotime, Cat. P0009), and then the protein was diluted to 1 mg/mL. The expression of IRAK4 (CST, Cat. 4363S) and the internal reference cofilin (CST, Cat. 5175S) were detected using a fully automated western blot quantitative analyzer (Proteinsimple). The expression level of IRAK4 relative to the internal reference was calculated using compass software. […] An IRAK4 degradation-drug concentration curve was fit using Graphpad Prism 8 software, and the DC50 was calculated.

[1] = target: hERG potassium ion channel (Homo sapiens, UniProt Q12809); experiment: Effect on hERG potassium ion channel (manual patch-clamp, CHO cells); details: read-out: IC50 for inhibitory effect on hERG potassium channel current; CHO cells stably expressing hERG, whole cell patch-clamp
Source text: Experimental platform: electrophysiological manual patch-clamp system
Cell line: Chinese hamster ovary (CHO) cell line stably expressing hERG potassium ion channel
Experimental method: In CHO (Chinese Hamster Ovary) cells stably expressing hERG potassium channel, whole cell patch-clamp technique was used to record hERG potassium channel current at room temperature. The glass microelectrode was made of a glass electrode blank (BF150-86-10, Sutter) by a puller. The tip resistance after filling the liquid in the electrode was about 2-5 MQ. The glass microelectrode can be connected to the patch-clamp amplifier by inserting the glass microelectrode into an amplifier probe. The clamping voltage and data recording were controlled and recorded by the pClamp 10 software through a computer. The sampling frequency was 10 kHz, and the filtering frequency was 2 kHz. […]
Data processing: Data analysis processing was carried out by using pClamp 10, GraphPad Prism 5 and Excel software. The inhibition degree of hERG potassium current (peak value of hERG tail current induced at −50 mV) at different compound concentrations was calculated by the following formula: […]
Compound IC50 was calculated using GraphPad Prism 5 software by fitting according to the following equation: […]

`Cn1nc(C2CCC(=O)NC2=O)c2cccc(C#CCO[C@@H]3CCN(C[C@H]4CC[C@H](n5cc(NC(=O)c6cnn7ccc(N8CCO[C@H](CO)C8)nc67)c(C(F)F)n5)CC4)C[C@@H]3F)c21` (single isomer, unassigned) showed a DC50 (IRAK4 protein) of under 0.02 µM and an IC50 [1] of over 40 µM.
